Data from patent US20050191283A1, “Methods of treating NFAT-related disorders” (priority 2003, published 2005).

System: IFN-γ expression in UCB T lymphocytes
Experiment: Intracellular IFN-γ staining in gated CD3+ cells of UCB MNC
Format: cell-based, human
Conditions: ConA 24 h, TNF-A (1 ng/ml) or IL-2 added in place of IFN-γ
Method: Human umbilical cord blood from full-term deliveries by vaginal or caesarean sections and adult peripheral blood from healthy donors was collected according to guidelines by the Institutional Review Board at University Hospitals of Cleveland. Mononuclear cells (MNC) were isolated by gradient centrifugation, as previously described (6) and used immediately fresh.
Total MNC were stimulated in bulk culture as previously described (6). Briefly, 2×10^6 cells/ml were stimulated with 2 μg/ml of concanavalin A (ConA) (Sigma Chemical Co, St Louis, Mo.) in complete RPMI medium (Gibco BRL, Gaithersburg, Md.), containing 10% fetal bovine serum (Gibco BRL), 1 mM Sodium-pyruvate, 0.1 mM nonessential amino acids, 10 mM HEPES and 58 μM 2-mercaptoethanol (Sigma Chemical Co), in presence or absence of the manufacturer's recommended concentration of 1 μg/ml of cyclosporin A (CsA) (Sigma Chemical Co), as previously described (7). Where specified, IFN-γ (Roche, Indianapolis, Ind.) was added at indicated concentrations, or neutralizing anti-IFN-γ antibody (R&D Systems, Minneapolis, Minn.) was added at a concentration of 0.25-2 μg/ml. […]
Intracellular IFN-γ staining was performed as described previously (6, 7). […] 20,000-80,000 events were acquired on a calibrated Elite ESP flow cytometer (Coulter, Miami, Fla.) and data were analyzed with WinList software (Verity Software House Inc, Topsham, Minn.). […]

With “IL-2: cytokine added during stimulation as specificity control” the “upregulation of IFN-γ expression” value was “did not result in upregulation of IFN-γ expression”.
